Experimental data reported in patent US20220152037A1, “USE OF GABAA RECEPTOR MODULATORS FOR TREATMENT OF PAIN” (NEUROCYCLE THERAPEUTIC, INC., priority 2019, published 2022).

Tested on: rat model of fibromyalgia pain (reserpine-induced mechanical allodynia)
Experiment: Mechanical allodynia (von Frey 50% response threshold) in reserpine-induced rat model of fibromyalgia pain
Type: in vivo
Conditions: oral, 0.3 mg/kg and 3 mg/kg; tested time points 1, 2, 4 hours post-dosing
From the text: The purpose of the study is to assess the efficacy of the described compounds in the rat model of fibromyalgia pain.
Animals were assigned to treatment groups based on Day 0 pre-dose von Frey 50% response thresholds so that group means of the mean paw withdrawal latencies were approximately equal. Animals were ranked by pre- and post-reserpine baseline change from lowest to highest, and treatments were assigned randomly within stratified sub-groups according to the total number of treatment groups in the study.
The volume of compound 1 or control article injected was 5 mL/kg. The animals were dosed in sequence based on animal number, so that the distribution of treatment across a given set of animals was not predictable.
Mechanical fibromyalgia-associated allodynia is measured using […] (Stoelting©; Wood Dale, Ill., USA) with varying stiffness (0.04, 0.07, 0.16, 0.4, 1.0, 4.0, and 8.0 g) according to the up-down method 1. […] The 50% response threshold is calculated using the formula: […]
Pain was induced by three daily doses of 1 mg/kg reserpine, and mechanical fibromyalgia-associated allodynia was assessed using von Frey filaments. Mechanical fibromyalgia-associated allodynia was measured prior to and the first reserpine injection and 4 days following the third injection. […]

CC(C)(O)c1cnn2c(-c3ccc(F)c(-c4c(F)cccc4C#N)c3)cnc2n1 [Compound 1]
Reversal of reserpine-induced mechanical fibromyalgia-associated allodynia: significant reversal of mechanical fibromyalgia-associated allodynia
